Data taken from US7642244B2, “Neuropeptide-2 receptor (Y-2R) agonists and uses thereof” (Hoffmann-La Roche Inc., priority 2005, dated 2010).

By UniProt entry, the sequences of proteins in these tests, tags left out. Where a name states a change or a piece, a line headed by the entry shows the natural chain unless it says otherwise.
UniProt P50391: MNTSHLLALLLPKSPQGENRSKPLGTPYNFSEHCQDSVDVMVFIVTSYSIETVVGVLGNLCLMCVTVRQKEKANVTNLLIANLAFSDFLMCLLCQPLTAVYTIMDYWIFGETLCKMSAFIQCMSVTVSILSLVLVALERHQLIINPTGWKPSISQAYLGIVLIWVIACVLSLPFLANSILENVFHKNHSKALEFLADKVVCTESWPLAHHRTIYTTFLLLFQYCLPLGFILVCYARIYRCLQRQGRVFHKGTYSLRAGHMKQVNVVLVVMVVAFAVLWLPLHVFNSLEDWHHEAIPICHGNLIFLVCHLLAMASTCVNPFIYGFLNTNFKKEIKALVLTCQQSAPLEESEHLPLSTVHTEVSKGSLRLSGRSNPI
UniProt P25929, whole entry: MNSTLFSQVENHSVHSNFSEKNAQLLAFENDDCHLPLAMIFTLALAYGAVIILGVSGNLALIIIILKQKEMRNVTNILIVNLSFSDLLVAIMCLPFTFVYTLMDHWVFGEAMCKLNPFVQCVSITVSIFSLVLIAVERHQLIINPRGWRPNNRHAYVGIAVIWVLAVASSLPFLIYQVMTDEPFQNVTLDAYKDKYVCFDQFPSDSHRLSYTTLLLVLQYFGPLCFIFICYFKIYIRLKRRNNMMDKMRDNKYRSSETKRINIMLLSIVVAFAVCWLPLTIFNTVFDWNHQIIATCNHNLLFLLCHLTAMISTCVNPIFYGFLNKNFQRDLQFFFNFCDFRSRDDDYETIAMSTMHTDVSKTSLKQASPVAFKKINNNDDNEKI
UniProt P49146, whole entry: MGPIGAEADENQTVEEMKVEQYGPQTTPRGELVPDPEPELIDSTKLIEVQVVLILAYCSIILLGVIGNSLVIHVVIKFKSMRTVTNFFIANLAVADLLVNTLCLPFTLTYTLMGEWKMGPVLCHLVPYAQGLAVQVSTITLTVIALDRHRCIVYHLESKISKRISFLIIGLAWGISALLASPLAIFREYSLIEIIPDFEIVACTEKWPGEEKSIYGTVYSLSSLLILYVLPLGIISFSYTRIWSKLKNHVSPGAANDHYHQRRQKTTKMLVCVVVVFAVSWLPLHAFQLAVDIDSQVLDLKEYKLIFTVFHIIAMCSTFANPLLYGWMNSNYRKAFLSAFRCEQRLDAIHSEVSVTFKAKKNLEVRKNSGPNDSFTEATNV

How the values were obtained:
Assay type in all cases: cell-based
Y5R = target: T1, Y5R (Homo sapiens, UniProt Q15761); assay: Calcium flux assay (FLIPR), Y5R
T1 sequence (Q15761 1-445): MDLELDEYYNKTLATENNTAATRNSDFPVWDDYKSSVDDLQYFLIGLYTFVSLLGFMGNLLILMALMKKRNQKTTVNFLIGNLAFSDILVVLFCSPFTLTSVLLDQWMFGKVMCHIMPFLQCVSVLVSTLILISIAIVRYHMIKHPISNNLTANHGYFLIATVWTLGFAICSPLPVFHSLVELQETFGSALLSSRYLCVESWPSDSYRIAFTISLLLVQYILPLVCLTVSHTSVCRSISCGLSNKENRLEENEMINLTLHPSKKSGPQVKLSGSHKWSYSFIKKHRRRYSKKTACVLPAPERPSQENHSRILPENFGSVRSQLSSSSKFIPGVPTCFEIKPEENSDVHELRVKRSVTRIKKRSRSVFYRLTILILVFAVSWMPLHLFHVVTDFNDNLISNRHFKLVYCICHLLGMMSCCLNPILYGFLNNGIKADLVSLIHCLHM
Method: (§1) During the assay, fluorescence readings were taken simultaneously from all 384 wells of the cell plate every 1.5 seconds. […] The fluorescence was continuously monitored before, during and after sample addition for a total elapsed time of 100 seconds. Responses (increase in peak fluorescence) in each well following addition was determined. The initial fluorescence reading from each well, prior to ligand stimulation, was used as a zero baseline value for the data from that well.

Y4R = Y4R (Homo sapiens, UniProt P50391); assay: Calcium flux assay (FLIPR), Y4R
Method: as §1

Y1R = Y1R (Homo sapiens, UniProt P25929); assay: Calcium flux assay (FLIPR), Y1R
Method: as §1

[1] = target: T2, human NPY2 receptor (HEK293/hNPY2R cells) (Homo sapiens, UniProt P49146); assay: Cyclic AMP assay, Y2R; details: forskolin 5 μM, read-out: Y2R EC50 (nM) cAMP
T2 construct: expressed in transfected cells; host or cells: HEK-293 stably transfected with G protein chimera Gaqi9 (HEK293/hNPY2R)

human NPY2 receptor = target: T3, human NPY2 receptor (Homo sapiens, UniProt P49146); assay: Calcium flux assay (FLIPR), Y2R; details: HEK293/hNPY2R cells
T3 construct: expressed in transfected cells; host or cells: HEK-293 stably transfected with G protein chimera Gaqi9 (HEK293/hNPY2R)
Method: Cells were harvested with trypsin-EDTA and counted using ViaCount reagent. […] CO2 incubator overnight.
as §1

Row | Substance | EC50 (Y5R) [nM] | EC50 (Y4R) [nM] | EC50 (Y1R) [nM] | EC50 [1] [nM] | EC50 (human NPY2 receptor) [nM]
1 | ((PEC30,000)CH2Cl2NHCOCH2CH2CO)Ile-Nle-Pqa-Arg-His-Tyr-Leu-Asn-Trp-Val-Thr-Arg-Gln-(NMe)Arg-Tyr-NH2 [Example 36] | > 5000 | > 5000 | > 5000 | 7.8 | –
2 | ((PEG-30,000)CH2CH2CO)Ile-Lys-Pqa-Arg-His-Tyr-Leu-Asn-Trp-Val-Thr-Arg-Gln-(NMe)Arg-Tyr-NH2 (SEQ ID NO: 32) and Ile((PEG-30,000)CH2CH2CO)(ε)Lys-Pqa-Arg-His-Tyr-Leu-Asn-Trp-Val-Thr-Arg-Gln-(NMe)Arg-Tyr-NH2 [Example 34] | > 5000 | > 5000 | > 5000 | 18 | –
3 | ((PEG-30,000)CH(CH3)CH2CO)Ile-Nle-Pqa-Arg-His-Tyr-Leu-Asn-Trp-Val-Thr-Arg-Gln-(NMe)Arg-Tyr-NH2 [Example 37] | > 5000 | > 5000 | > 5000 | – | –
4 | ((PEG-40,000)CO)Ile-Lys-Pqa-Arg-His-Tyr-Leu-Asn-Trp-Val-Thr-Arg-Gln-(NMe)Arg-Tyr-NH2 (SEQ ID NO: 34) and Ile((PEG-40,000)CO)(ε)Lys-Pqa-Arg-His-Tyr-Leu-Asn-Trp-Val-Thr-Arg-Gln-(NMe)Arg-Tyr-NH2 [Example 35] | > 5000 | > 5000 | > 5000 | – | 590
5 | Ile((PEG-30,000)CH2CH2NHCOCH2CH2CO)(ε)Lys-Pqa-Arg-His-Tyr-Leu-Asn-Trp-Val-Thr-Arg-Gln-(NMe)Arg-Tyr-NH2 [Example 41] | > 5000 | > 5000 | > 5000 | 9.8 | –
